# Patent publication US4125375A, “Separation of solid and liquid components of mixtures” (National Research Development Corporation, priority 1975, dated 1978)
# Tested on: guinea pig anti-hFSH
# Assay: Radioimmunoassay for human follicle stimulating hormone (hFSH), solid phase second antibody separation
# Type: binding
# Procedure: A comparison of the separation of "bound" from "free" ^125 I-FSH by conventional centrifuge techniques and by the technique of the present invention is carried out as follows. After incubation of aliquots of the tracer (^125 I-FSH) and primary antibody (guinea pig anti-hFSH) a solid phase second antibody (rabbit anti-guinea pig γ globulin serum coupled to Sepharose 4B) is added to each incubate giving a total volume of 0.5 ml in each tube, and the tubes are agitated for 30 minutes. Control tubes containing tracer and solid phase second antibody but no primary antibody are also prepared for the purposes of comparison. The tubes are then divided into three groups (A, B and C) and further treated as follows. (A) 6 ml of diluent is added to each tube in this group and the diluent is thoroughly mixed with the incubate. The tubes are then centrifuged at 2000 g for 5 minutes and the supernatant liquid discarded. A further 6 ml of diluent is added to each tube, the diluent mixed with the deposit, centrifugation repeated, the supernatant again discarded, and the tubes are then counted using the Wallac auto-γ counter as in Example 1 though without the modifications as in FIG. 1. (B) 0.5 ml of diluent is added to each tube in this group and the diluent thoroughly mixed with the incubate. 1.2 ml of a 10% w/v aqueous solution of sucrose is then immediately added to each tube using a stainless steel probe and peristaltic pump as described in Example 1. The tubes are left to stand for 10 minutes during which time the solid bound Sepharose phase settles under the action of gravity into the sucrose layer. 1.2 ml of liquid (i.e. 1 ml of upper aqueous layer and the interface and about 0.2 ml of the sucrose) is then removed from the top of each tube by means of a glass tube connected to a water pump. The contents of each tube are then counted by placing them in an unmodified counter as in A above. (C) The tubes in this group are initially treated as are the tubes in Group B. Prior to counting however, 1.2 ml of 20% w/v aqueous sucrose solution is layered beneath the suspension of Sepharose in 10% sucrose. The tubes are then left to stand for a further 10 minutes, the Sepharose settling under the action of gravity into the layer of 20% sucrose, and 1.2 ml of liquid is removed from the top of each tube. The delivery and removal of liquids is carried out in the same way as in Group B. The tubes are then counted using an unmodified counter as above, the results obtained being given in Table 2 below.
substance,measurement,setting,value
^125 I-FSH: tracer (^125 I-FSH) of the radioimmunoassay for human follicle stimulating hormone (hFSH),% Bound,"""O"" standards, Group A (centrifuged controls)",36.9%
same,% Bound,"""O"" standards, Group B in situ system 1 wash (10% sucrose)",36.9%
same,% Bound,"""O"" standards, Group C in situ system 2 washes (10% and 20% sucrose)",34.3%
same,% Bound,"Controls (no primary antibody), Group A (centrifuged controls)",2.9%
same,% Bound,"Controls (no primary antibody), Group B in situ system 1 wash (10% sucrose)",1.8%
same,% Bound,"Controls (no primary antibody), Group C in situ system 2 washes (10% and 20% sucrose)",0.8%
